Source: article PMC8782398

Biological target: human KOP receptor in CHO cells (human), P41145
Test: radioligand binding

Binder: YGGFLRRIRPKLKWDNQ (modifications not checked) [Dynorphin-A]
- pKi: 10.2
